Experimental data: patent publication US20220193021A1 (priority 2019, published 2022)
Where a name gives a salt, the structure may show the parent alone.

What was measured:
[1] = tested on: influenza virus strain H3N2
[2] = tested on: influenza virus strain H1N1
influenza virus = type: cell-based

N=C(N)c1ccc2cc(OC(=O)c3ccc(N=C(N)N)cc3)ccc2c1 [nafamostat mesylate]
activity against H3N2 virus [1]: inhibitory activity
activity against H1N1 virus [2]: inhibitory activity
therapeutic window (influenza virus): 48 h
